Assay results published in article PMC10535824, “Tryptophan Substitution in CJ-15,208 (cyclo[Phe-D-Pro-Phe-Trp]) Introduces δ-Opioid Receptor Antagonism, Preventing Antinociceptive Tolerance and Stress-Induced Reinstatement of Extinguished Cocaine-Conditioned Place Preference” (Pharmaceuticals, 2023).

System: C57BL/6J mice
Experiment: acute antinociceptive tolerance (dosing at 0 and 8 h)
Settings: i.c.v.
Procedure: The degree of tolerance was calculated from the shift in ED50 value from the singly to repeatedly treated condition.

CN1CC[C@]23c4c5ccc(O)c4O[C@H]2[C@@H](O)C=C[C@H]3[C@H]1C5 [Morphine, reference compound]
Fold-Shift, Naïve ED50 vs. Second ED50: 7.70
rightward shift in the dose–response curve of the second dose: 7.7 fold
